According to US20050123936A1, “Method, composition, and kit to design, evaluate, and/or test compounds that modulate regulatory factor binding to nucleic acids” (priority 2003, published 2005):

Experiment: Solubility of linker compounds
Type: physicochemical
Conditions: compared with compounds bearing the additional lysine residue
Text: The propyl end of the linker projects off the N-methylpyrrole of the anchor moiety in each case. This arrangement is sufficient to project the test compound over the minor groove and position it adjacent to the major groove where Exd would bind. The eight varying linkers range from ˜33 Å in the case of the PEG linker to ˜2.5 Å in the case of the lysine linker. Linkers 1-5 and 8 bear an additional lysine residue at the C-terminus of their YPWM hook. This residue is often seen in hooks in various Hox proteins, in our case we treat it as an additional linker residue. The lysine also improves the solubility of these rather hydrophobic compounds. […] Each of the compounds were synthesized by solid phase methods, as described hereinabove. The polyamide was synthesized first, and then conjugated by conventional means to each of the eight linkers, which was then conjugated (by conventional means) to the peptide. Care was taken to ensure that the tyrosine residue was not racemized, and that the tryptophan was not oxidized. The compounds were confirmed by MALDI-TOF mass spectrometery (data not shown).

Row | Substance | solubility
1 | Linker 7: Example 7 polyamide-FYPWM conjugate with linker 7, no lysine residue (N-methyl) | less soluble
2 | Linker 6: Example 7 polyamide-FYPWM conjugate with linker 6, no lysine residue (N-methyl) | less soluble
